This is an account of results in patent publication US20240217936A1, “5-BENZY[…] AND PREPARATION METHOD THEREFOR AND USE THEREOF” (WEST CHINA HOSPITAL, SICHUAN UNIVERSITY, priority 2021, published 2024).

The conditions of data set [1]: reported (Anttila M, et al. 2003); cited from earlier work.
A further data set has as its system Male SD rats. Kind of data set: Blood pressure change after tail vein injection (mean arterial pressure). As to conditions: 60 min recording. On the procedure:
Male SD rats weighing 250-300 g were randomly divided into groups, with 10 rats in each group. General anesthesia was maintained by inhaling isoflurane. By intubating via femoral artery, blood pressure was monitored using the BL-420N biological signal collection and analysis system. minutes after blood pressure stabilization, the baseline mean arterial pressure (MAP0) was measured. Subsequently, the physiological saline solution of each test drug was injected via the tail vein (the dosage of each drug was the same as that in Experiment example 2, with a unified injection […] volume of 1 mL). […] All prodrug molecules were injected within 15 seconds. After injection of each drug, the change in blood pressure was continuously recorded for 60 min. […] The difference MAPΔ+ between the baseline mean arterial pressure (MAP0) and the highest mean arterial pressure (MAPmax) during the 60 min measurement time was calculated; the difference MAPΔ− between the baseline mean arterial pressure (MAP0) and the lowest mean arterial pressure (MAPmin) during the 60 min measurement time was also obtained; both of the difference values were used to calculate the maximum increase rate of mean arterial pressure +Δ%=MAPΔ+/MAP0*100% and the maximum decrease rate of mean arterial pressure −Δ%=MAPΔ−/MAP0*100%, respectively. The maximum increase rate of mean arterial pressure +Δ% and the maximum decrease rate −Δ% reflect the degree of blood pressure change that the body experienced after administration. The larger the value, the greater the blood pressure change that the body experienced.

The mark [2] stands for this setting: dosage 2× ED50, injection within 15 seconds, rats under isoflurane.
Where [3] appears, read: dosage 2× ED50, injection within 10 minutes (0.1 mL per minute), rats.

Turning to `Cc1cccc([C@H](C)c2c[nH]cn2)c1C.Cl` [Dexmedetomidine hydrochloride, reference compound], in data set [1], the oral bioavailability is given as 16%. Further, in the data set on Male SD rats (setting [2]), the “+Δ % (The maximum increase rate of blood pressure)” value is listed as 43 ± 11% and the “−Δ % (The maximum decrease rate of blood pressure)” value turned out to be 38 ± 7%. For the same molecule, in the data set on Male SD rats (setting [3]), the “+Δ % (The maximum increase rate of blood pressure)” value is recorded as “*15 ± 5%” and the “−Δ % (The maximum decrease rate of blood pressure)” value was determined as 37 ± 8%.
